Results as given in ChEMBL document CHEMBL4118239, “Novel leucine ureido derivatives as aminopeptidase N inhibitors using click chemistry” (Bioorg Med Chem, 2018).

Molecular target: T1, Aminopeptidase N (Sus scrofa) (UniProt P15145)
T1 sequence (whole entry): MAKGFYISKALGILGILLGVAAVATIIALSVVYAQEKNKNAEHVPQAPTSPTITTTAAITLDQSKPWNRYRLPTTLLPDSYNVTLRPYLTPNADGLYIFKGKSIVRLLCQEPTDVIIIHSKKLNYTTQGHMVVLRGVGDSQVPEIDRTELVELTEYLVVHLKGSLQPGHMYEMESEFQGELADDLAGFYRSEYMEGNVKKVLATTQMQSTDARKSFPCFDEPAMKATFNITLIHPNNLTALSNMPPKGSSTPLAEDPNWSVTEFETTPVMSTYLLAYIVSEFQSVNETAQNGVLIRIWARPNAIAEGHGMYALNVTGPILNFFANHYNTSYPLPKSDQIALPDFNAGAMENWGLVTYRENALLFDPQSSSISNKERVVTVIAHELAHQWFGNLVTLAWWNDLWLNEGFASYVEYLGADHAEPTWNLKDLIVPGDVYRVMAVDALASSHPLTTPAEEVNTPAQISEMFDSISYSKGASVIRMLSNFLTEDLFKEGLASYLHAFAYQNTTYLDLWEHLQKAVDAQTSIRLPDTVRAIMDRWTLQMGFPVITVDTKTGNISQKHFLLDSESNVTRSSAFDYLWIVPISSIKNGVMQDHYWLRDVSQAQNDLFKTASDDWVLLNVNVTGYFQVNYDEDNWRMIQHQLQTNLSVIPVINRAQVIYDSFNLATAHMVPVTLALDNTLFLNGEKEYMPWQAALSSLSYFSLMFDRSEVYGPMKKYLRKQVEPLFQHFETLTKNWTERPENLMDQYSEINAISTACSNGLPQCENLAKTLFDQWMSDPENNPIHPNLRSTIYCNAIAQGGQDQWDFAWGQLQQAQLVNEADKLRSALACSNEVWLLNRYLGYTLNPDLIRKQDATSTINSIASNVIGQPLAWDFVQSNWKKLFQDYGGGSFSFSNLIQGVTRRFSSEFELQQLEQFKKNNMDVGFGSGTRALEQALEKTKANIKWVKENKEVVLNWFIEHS
Test: Potency index, ratio of bestatin IC50 to compound IC50 for APN in porcine kidney microsomes

Ratio IC50: > 100
Compound: CC(C)C[C@H](NC(=O)NCc1cn(Cc2ccccc2OCc2ccccc2)nn1)C(=O)NO
